From patent publication US12507703B2, “Methods, devices and compositions for preserving human milk” (The Trustees of Princeton University, priority 2023, dated 2025)
Where a name gives a salt, the structure may show the parent alone.

Test system: lipase
Assay: Lipase/lipolysis assay (EnzChek Lipase Substrate, quenched BODIPY-fatty acid conjugate) on stored human milk
Conditions: Biolog PM1 compound added to fresh human milk, stored 1 week at −20° C.; RFU <400 = hit

| Compound | Lipase (RFU) |
| --- | --- |
| NCCc1ccc(O)cc1 [Tyramine] | 517.4752 |
| O=CC(=O)O [Glyoxylic Acid] | 994.5383 |
| N[C@H](CO)C(=O)O [D-Serine] | 1090.454 |
| OC[C@@H](O)[C@@H](O)[C@H](O)[C@@H](O)CO [D-Sorbitol] | 892.2918 |

Same assay, conditions: Biolog PM2a compound added to fresh human milk, stored 1 week at −20° C.; RFU <400 = hit

| Compound | Lipase (RFU) |
| --- | --- |
| CC(=O)N[C@@H](CCC(=O)O)C(=O)O [N-Acetyl-L-Glutamic Acid] | 1040.727 |
| N[C@H]1C(O)O[C@H](CO)[C@@H](O)[C@@H]1O (stereo partly drawn) [D-Glucosamine] | 688.2356 |
| Gelatin | 658.8161 |

Same assay, conditions: Biolog PM4 compound added to fresh human milk, stored 1 week at −20° C.; RFU <400 = hit

| Compound | Lipase (RFU) |
| --- | --- |
| Nc1ncnc2c1ncn2[C@@H]1O[C@H](CO)[C@@H](O)[C@H]1OP(=O)(O)O [Adenosine-2′-monophosphate] | 835.9772 |

Same assay, conditions: Biolog PM5 compound added to fresh human milk, stored 1 week at −20° C.; RFU <400 = hit

| Compound | Lipase (RFU) |
| --- | --- |
| O=C(O)CC(=O)C(=O)O [Oxaloacetic Acid] | 810.9101 |

Same assay, conditions: Food Additive Library compound added to fresh human milk, stored 1 week at −20° C., thawed at room temperature; RFU of <400 considered a hit

| Compound | Lipase (RFU) |
| --- | --- |
| COc1ccc(OC)cc1 [1,4-Dimethoxybenzene] | 995.997 |
| O=C(O)C=Cc1ccccc1O [2-Hydroxycinnamic acid] | 929.9843 |
| Cc1cncc(C)n1 [2,6-Dimethylpyrazine] | 824.3061 |
| CC(=O)c1ccc[nH]1 [Compound 2-Acetylpyrrole, 2-Acetylpyrrole] | 989.2956 |
| O=C(CO)CO [1,3-Dihydroxyacetone] | 952.8488 |
| NCCc1ccc(O)cc1 [Tyramine] | 955.4062 |
| Lysozyme from chicken egg white | 739.4473 |
| COC(=O)C1CCCCC1 [Methyl cyclohexanecarboxylate] | 1098.735 |
| CCCOC(=O)c1ccc(O)cc1 [Propylparaben] | 846.3629 |
| CC(=O)O.COc1cc(C=O)ccc1O [Vanillin acetate] | 737.3261 |
| CC(=O)OC[C@H]1O[C@@](COC(C)=O)(O[C@H]2O[C@H](COC(C)=O)[C@@H](OC(C)=O)[C@H](OC(C)=O)[C@H]2OC(C)=O)[C@@H](OC(C)=O)[C@@H]1OC(C)=O [Sucrose octaacetate] | 903.444 |
| CCCCCCCCCCCCCCCC(=O)OCC [Ethyl palmitate] | 965.2005 |
| CCCC(C)C(=O)O (stereo not drawn) [2-Methylvaleric acid] | 913.3585 |
| O=C(O)CN(CCN(CC(=O)O)CC(=O)O)CC(=O)O [Ethylenediaminetetraacetic acid] | 838.2328 |
| COc1cccc(OC)c1 [1,3-Dimethoxybenzene] | 847.2749 |
| Cc1ccc(CO)o1 [5-Methyl-2-furanmethanol] | 971.233 |
| C/C=C(\C)C(=O)O [Tiglic acid] | 1078.568 |
| C=CC(C)(O)CCC=C(C)CCC=C(C)C (mixture of isomers) [Nerolidol] | 1068.015 |
| C=CCSSSCC=C [Diallyl Trisulfide] | 1075.357 |
| COc1cc(C(=O)O)ccc1O [Vanillic acid] | 1052.276 |
| OC[C@@H](O)[C@@H](O)[C@H](O)[C@@H](O)CO [D-Sorbitol] | 781.4379 |
| O=C(O)C=Cc1ccccc1 [Cinnamic acid] | 737.0173 |
| CCCCCCCCCC(=O)O [Decanoic acid] | 948.693 |
| O=C1C=CCO1 [2(5H)-Furanone] | 1095.726 |
| CCC(=O)C(=O)O [2-Oxobutanoic acid] | 965.1993 |

Same assay, conditions: Food-Sourced Compound Library compound added to fresh human milk, stored 1 week at −20° C., thawed at room temperature; RFU <400 considered a hit

| Compound | Lipase (RFU) |
| --- | --- |
| CC1=NN(c2ccccc2)C(=O)C1 [Edaravone] | 1086.284 |
| CCCCCCCCCCCCCCCCCCCCCCCCCCCCC [Nonacosane] | 1064.291 |
| CC(C)C(=O)C(=O)[O-].[Na+] [Sodium 3-methyl-2-oxobutanoate] | 1025.486 |
| Cc1ncc(COP(=O)(O)O)c(C=O)c1O [Pyridoxal phosphate] | 900.7177 |
| NCCc1ccc(O)cc1 [Tyramine] | 1128.759 |
| CN(C)CC(=O)O [N-Methylsarcosine] | 998.6616 |
| CC(C)=CCC[C@]1(C)C=Cc2c(O)c3c(c(CC=C(C)C)c2O1)O[C@]12C(=C[C@@H]4C[C@H]1C(C)(C)O[C@@]2(C/C=C(/C)C(=O)O)C4=O)C3=O [Gambogic Acid] | 1063.766 |
| CN1CC(=O)NC1=O [N-Methylhydantoin] | 973.8439 |
| Cc1ccc(C(C)C)cc2c(C)ccc1-2 [Guaiazulene] | 999.8541 |
| CC(C(=O)O)C(O)(CC(=O)O)C(=O)O (stereo not drawn) [2-Methylcitric acid] | 1204.199 |
| Cn1ccc(=O)n(C)c1=O [1,3-Dimethyluracil] | 1001.839 |
| C=C1C(=O)O[C@@H]2C[C@@]3(C)CCCC(=C)[C@@H]3C[C@H]12 [Isoalantolactone] | 1089.165 |
| N[C@H](CO)C(=O)O [D-Serine] | 996.7927 |
| Cc1cn([C@@H]2O[C@H](CO)[C@@H](O)[C@H]2O)c(=O)nc1N [Compound 5-Methylcytidine, 5-Methylcytidine] | 1079.212 |
| O=P(O)(O)OC[C@H]1OC(O)(COP(=O)(O)O)[C@@H](O)[C@@H]1O (stereo partly drawn) [Fosfructose (trisodium)] | 1022.707 |
| O=c1c(O)c(-c2ccc(O[C@@H]3O[C@H](CO)[C@@H](O)[C@H](O)[C@H]3O)c(O)c2)oc2cc(O)cc(O)c12 [Spiraeoside] | 861.8613 |
| CCC(=O)C(=O)O [2-Oxobutanoic acid] | 658.9715 |
| N=C(N)N [Guanidine (hydrochloride)] | 1252.71 |
| N[C@H]1C(O)O[C@H](CO)[C@@H](O)[C@@H]1O (stereo partly drawn) [Glucosamine] | 724.886 |

Same assay, conditions: Table 7, single compound 20 mg/mL, human milk stored 1 week at −20° C.; inhibited if RFU <400

| Compound | Lipase (RFU) |
| --- | --- |
| O=C(/C=C/c1ccc(O)c(O)c1)O[C@H](Cc1ccc(O)c(O)c1)C(=O)O [Rosmarinic Acid] | 807.614 |

Same assay, conditions: compound added to fresh human milk, stored 1 week at −20° C., thawed at room temperature; RFU <400 considered a hit

| Compound | Lipase (RFU) |
| --- | --- |
| COc1ccc(OC)cc1 [1,4-Dimethoxybenzene] | 1097.393 |
| O=c1oc2cc(O)ccc2c2oc3cc(O)ccc3c12 [Coumestrol] | 869.5976 |
| O=C(O[C@@H]1O[C@@H]2COC(=O)c3cc(O)c(O)c(O)c3-c3c(cc(O)c(O)c3O)C(=O)O[C@H]([C@H]1O)[C@@H]2O)c1cc(O)c(O)c(O)c1 [Corilagin] | 812.4075 |
| CC(/C=C/C=C(\C)C(=O)O[C@@H]1O[C@H](CO)[C@@H](O)[C@H](O)[C@H]1O)=C\C=C\C=C(C)\C=C\C=C(/C)C(=O)O[C@@H]1O[C@H](CO[C@@H]2O[C@H](CO)[C@@H](O)[C@H](O)[C@H]2O)[C@@H](O)[C@H](O)[C@H]1O [Crocin II] | 1325.975 |
| NC(=O)Cc1c[nH]c2ccccc12 [Indole-3-acetamide] | 788.953 |
| O=C(O)CP(=O)(O)O [Phosphonoacetic acid] | 1174.468 |
| CC(=O)CO [Hydroxyacetone] | 837.357 |
| O=c1oc2c(O)c(O)cc3c(=O)oc4c(O)c(O)cc1c4c23 [Ellagic acid] | 878.4604 |
| C[C@H]1CC[C@@]2(OC1)O[C@H]1C[C@H]3[C@@H]4CC[C@@H]5C[C@@H](O)CC[C@]5(C)[C@H]4CC[C@]3(C)[C@H]1[C@@H]2C [Sarsasapogenin] | 952.9686 |
| O=Cc1c[nH]c2ccccc12 [Indole-3-carboxaldehyde] | 925.3793 |
| CC(C)=CC1C(C(=O)OCc2cccc(Oc3ccccc3)c2)C1(C)C (stereo not drawn) [Phenothrin] | 903.222 |
| CC(=O)O.COc1cc(C=O)ccc1O [Vanillin acetate] | 814.1248 |
| COc1ccc2ccc(=O)oc2c1 [Herniarin] | 690.7558 |
| O=C(O)CCc1ccc(O)cc1 [Desaminotyrosine] | 1140.163 |
| CCCC(C)C(=O)O (stereo not drawn) [2-Methylvaleric acid] | 1241.438 |
| COc1cc2c3c(cc4ccccc4c3c1OC)N(C)CC2 [Dehydronuciferine] | 1046.98 |
| CCCCCCCCCCCCCCCCCCCCC [Heneicosane] | 867.307 |
| C/C=C(\C)C(=O)O [Tiglic acid] | 1059.35 |

| Compound | Lipase (RFU) |
| --- | --- |
| O=C(O)CC[C@H](O)C(=O)O.[Na].[Na] [L-2-Hydroxyglutaric acid (disodium)] | 928.8198 |
| COc1ccc(-c2cc(=O)c3c(OC)c(OC)c(OC)c(OC)c3o2)cc1 [Tangeretin] | 1368.296 |
| CC(C)=CCC[C@](C)(O)[C@@H]1CC=C(C)CC1 [Levomenol] | 1094.539 |
| CC(CCC(=O)NCC(=O)O)C1CCC2C3C(O)CC4CC(O)CCC4(C)C3CCC12C (stereo not drawn) [Glycochenodeoxycholic acid (sodium salt)] | 1042.644 |
| O=C(O)Cc1cccc(O)c1 [3-Hydroxyphenylacetic acid] | 1127.603 |
| CCC(O)CC [Compound 3-Pentanol, 3-Pentanol] | 647.4207 |
| C=CC(C)(O)CCC=C(C)CCC=C(C)C (mixture of isomers) [Nerolidol] | 977.6047 |
| COc1cc2ccc(=O)oc2cc1OC [Scoparone] | 1169.704 |
| O=C1CCCCN1 [Compound 2-Piperidone, 2-Piperidone] | 734.5448 |
| OC[C@@H](O)[C@@H](O)[C@H](O)[C@@H](O)CO [D-Sorbitol] | 713.6691 |
| O=C(O)/C=C/CCCCCCCCC(=O)O [Traumatic Acid] | 917.3568 |
| O=C(O)CCCC(O)C(=O)O (stereo not drawn) [2-Hydroxyadipic acid] | 1079.818 |
| O=C(OCC1=C[C@@H](O)[C@@H]2C=CO[C@@H](O[C@@H]3O[C@H](CO)[C@@H](O)[C@H](O)[C@H]3O)[C@H]12)c1ccc(O)cc1 [Agnuside] | 1066.467 |
| O=C(O)C=Cc1ccccc1 [Cinnamic acid] | 937.8232 |
| CC(C)c1ccc(C(=O)O)cc1 [4-Isopropylbenzoic acid] | 857.7524 |
| COc1c2occc2cc2ccc(=O)oc12 [Methoxsalen] | 1482.513 |
| Cn1c(=O)[nH]c2nc[nH]c2c1=O [Compound 1-Methylxanthine, 1-Methylxanthine] | 907.9205 |
| Nc1ncnc2c1ncn2[C@@H]1O[C@H](CO)[C@@H](O)[C@H]1OP(=O)(O)O [Adenosine-2′-monophosphate] | 642.3973 |
